Assay results taken from patent publication US20050065064A1, “Identification of allosteric peptide agonists of CXCR4” (priority 2002, published 2005).

Sequences of proteins named here, by UniProt entry; tags and fusion partners are left off.
UniProt P61073, whole entry: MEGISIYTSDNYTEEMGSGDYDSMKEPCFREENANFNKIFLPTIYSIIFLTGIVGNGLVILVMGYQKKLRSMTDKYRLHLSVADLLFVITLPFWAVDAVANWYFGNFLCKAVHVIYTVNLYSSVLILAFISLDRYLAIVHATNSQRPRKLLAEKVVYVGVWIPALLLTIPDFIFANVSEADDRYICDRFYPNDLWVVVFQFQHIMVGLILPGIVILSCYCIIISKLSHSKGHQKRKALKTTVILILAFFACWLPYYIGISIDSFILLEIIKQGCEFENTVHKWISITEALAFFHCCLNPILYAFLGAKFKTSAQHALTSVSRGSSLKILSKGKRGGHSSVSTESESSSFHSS

Columns and labels:
CXCR4 [1] = target: T1, CXCR4 (Homo sapiens, UniProt P61073); experiment: Flow cytometry of CXCR4 surface levels (12G5 indirect staining); type: cell-based; conditions: FIG. 8D, 8E
Procedure: Flow cytometric analysis of cell subpopulations was performed using a FACS Vantage flow cytometer (Becton-Dickinson Immunocytometry Systems, San Jose, Calif.) for detection of CXCR4 surface expression with the 12G5 monoclonal antibody. An indirect staining protocol was used. Briefly, after a 90 min incubation with various agents, the cells were washed and resuspended in PBS. Nonspecific (Fc-mediated) binding was blocked using purified rat IgG. The primary antibody (12G5, a mouse IgG2a antibody) was added at 1 μg/ml for 45 min. After centrifugation the cells were resuspended in PBS and the secondary antibody (FITC-linked rat anti-mouse IgG2a) was added at 10 μg/ml for 45 min. The cells were fixed with 2% formaldehyde (in PBS) and used within 2 days for data acquisition. Mouse IgG2a was used as an isotype control. For the fluorescence measurements the cells were excited at 488 nm. The FITC fluorescence was collected through a 530/30 nm band pass filter. A minimum of 15,000 cells were examined for each sample. Analysis of data was performed using the CellQuest software (Becton-Dickinson).

CXCR4 [2] = target: T1, CXCR4; experiment: β-galactosidase assay in yeast expressing CXCR4 (FUS1-lacZ reporter); type: cell-based; parameters: The plasmid Cp4181 contains the CXCR4 gene under the control of the constitutive phosphoglycerate kinase (PGK1) promoter; expressed in transfected cells; host or cells: Saccharomyces cerevisiae CY12946 derivatives YAS2 / YAS3 (plasmid Cp4181)
Description: The initial S. cerevisiae strain was CY12946 (MATα FUS1p-HIS3 GPA1Gαi2(5) canI farIΔI442 his3 leu2 sst2Δ2 ste14::trp1::LYS2 ste3Δ1156 tbt1-1 trp1 ura3) (23). Except for the specific chimeric Ga subunit expressed, CY12946 is genetically similar to CY1141, reported in Klein et al. (18), with two differences. First, the two strains express different Gα subunits. Specifically, CY12946 expresses a chimeric Gα subunit (GPA1Gαi2(5)) in which the C-terminal 5 amino acids of the yeast Ga subunit, GPA1, are replaced by the C-terminal 5 residues of Gαi2. In contrast, as described by Klein et al. (18), CY1141 expresses a chimeric Ga subunit (GPA1(41)Gαi2) in which the N-terminal 33 residues of Gαi2 are replaced by the 41 N-terminal residues of GPA1. We have used CY12946 in the current report because GPA1Gαi2(5) is more efficient than GPA1(41)Gαi2 in coupling CXCR4 to the pheromone response pathway. The use of GPA1Gαi2(5) necessitated deletion of SST2, which down-regulates the pheromone response pathway by accelerating the GTPase activity of GPA1. Thus, the second difference between CY12946 and CY1141 is the presence of an sst2 deletion allele in CY12946. All plasmids were 2μ-derived and contained a REP3 element for autonomous replication in S. cerevisiae and AmPR for selection in Escherichia coli. […]

CCRF-CEM cells = experiment: Chemotaxis assay (transwell) on CCRF-CEM cells; type: cell-based, human
Procedure: The CCRF-CEM acute lymphoblastic leukemia cell line was previously shown to express CXCR4 and to migrate in response to SDF-1α (31). The procedure involved cells that were ˜70-80% confluent and were centrifuged at 1000 rpm for 5 min and resuspended at a concentration of ˜10^7 cells/ml. The transwell system (Corning-Costar^R) was used for quantifying the chemotactic response. Six hundred μl of solution with different concentrations of a CXCR4 agonist were added to the bottom of the wells of 24-well culture plates. One hundred μl of the cell suspension was aliquoted in the transwell cups and inserted in the wells. The bottom of the cups is layered with a membrane that has a 5 μm pore size and allows cell movement towards the higher concentration of chemoattractant. The cells were incubated for 2h at 37° C., after which the migrated cells were collected and counted with an electronic particle counter (Coulter^R). In cases where the effect of neutralization by CXCR4 monoclonal antibodies or antagonists was examined, the inhibitor was added to the upper compartment along with the cells.

With CSCC[C@H](NC(=O)[C@@H](NC(=O)[C@H](CO)NC(=O)[C@@H](N)CCCNC(=N)N)C(C)C)C(=O)N[C@@H](CC(C)C)C(=O)N[C@@H](CO)C(=O)N[C@@H](Cc1ccc(O)cc1)C(=O)N[C@@H](CCCNC(=N)N)C(=O)N[C@@H](CS)C(=O)N1CCC[C@H]1C(=O)N[C@@H](CS)C(=O)N[C@@H](CCCNC(=N)N)C(=O)N[C@@H](Cc1ccccc1)C(=O)N[C@@H](Cc1ccccc1)C(=O)N[C@@H](CCC(=O)O)C(=O)N[C@@H](CO)C(=O)N[C@@H](Cc1c[nH]cn1)C(=O)O [RSVM] the “concentration dependence of the effect on CXCR4 surface levels” value (CXCR4 [1]) was “concentration-dependent”, the “resistance of β-galactosidase activity to AMD3100” value (CXCR4 [2]; peptide-expressing yeast clones) was “resistance to AMD3100” and the “β-galactosidase activity on endogenous expression of the peptide” value (CXCR4 [2]; yeast strains with or without CXCR4 (FIG. 3)) was “significant increase of β-galactosidase activity only in the strain that co-expresses CXCR4”. The “agonist character in chemotaxis (chemotactic index relative to SDF-Fc)” value (CCRF-CEM cells; CCRF-CEM cells) was “weak partial agonist”, the pEC50 (CCRF-CEM cells; CCRF-CEM cells (FIG. 4A, 4B), read-out: apparent EC50, chemotaxis) was < 4.00 and the “lowering of chemotactic index on co-stimulation with SDF-Fc versus SDF-Fc alone” value (CCRF-CEM cells; CCRF-CEM cells (FIG. 4C)) was “about 30%”. The “chemotaxis in the presence of the two peptide agonists ASLW and RSVM” value (CCRF-CEM cells; CCRF-CEM cells (FIG. 4E)) was “additive”, the “effect of antibody 12G5 on chemotactic activity of the agonist” value (CCRF-CEM cells; CCRF-CEM cells (FIG. 6A, 6B, 7D)) was “very small effect” and the “effect of AMD3100 on chemotactic activity of the agonist” value (CCRF-CEM cells; CCRF-CEM cells, AMD3100 up to 100 μg/ml (~115 μM)) was “Strong resistance to inhibition”. For the same molecule, the “effect of T140 on chemotactic activity of the agonist” value (CCRF-CEM cells; CCRF-CEM cells, T140 up to concentrations comparable to the agonists) was “does not inhibit” and the “effect of antibody 44717.111 on chemotactic activity of the agonist” value (CCRF-CEM cells; CCRF-CEM cells, up to 50 μg/ml for the peptides, ten-fold lower for SDF-Fc) was “neither RSVM- nor ASLW-mediated chemotactic activity is significantly affected”.

pEC50: −log10 of the molar value.
